Results on 16 substances are retold here after patent publication US20090325894A1 (priority 2007, published 2009).

The series can be described thus: Solubility in water. Format: physicochemical.
In the case of “Sodium oleoyl-L-Alanyl-L-Valyl-Doxorubicin maleate [Example 120]”, the solubility in water result was “more than 1 mg/mL”. The entry for “Trisodium 4-(2-(2-oleoylaminoethoxy)ethylamino)-4-oxo-butanoyl-L-Alanyl-L-Valyl-Doxorubicin trisuccinate [Example 121]” is “more than 1 mg/mL”. The entry for “Bissodium oleoyl-L-Alanyl-L-Valyl-Epirubicin bissuccinate [Example 113]” is “more than 1 mg/mL”; for “Bissodium linolenic acyl-L-Alanyl-L-Valyl-Epirubicin bissuccinate [Example 116]” it is “more than 1 mg/mL”; for “Trisodium oleoyl-L-Alanyl-L-Valyl-Doxorubicin trisuccinate [Example 107]” it is “more than 1 mg/mL”. As for “Sodium oleoyl-L-Alanyl-L-Valyl-Doxorubicin succinate [Example 106]”, the entry is “more than 1 mg/mL”; as for “Bisammonium linoleic acyl-L-Alanyl-L-Valyl-Doxorubicin bissuccinate [Example 123]”, “more than 1 mg/mL”. Turning to “Bissodium linoleic acyl-L-Alanyl-L-Valyl-Epirubicin bissuccinate [Example 115]”, the solubility in water entry is given as “more than 1 mg/mL”. As for “Bissodium DHA acyl-L-Alanyl-L-Valyl-Doxorubicin bissuccinate [Example 110]”, the entry is “more than 1 mg/mL”. As for “Bissodium oleoyl-L-Alanyl-L-Valyl-Doxorubicin bissuccinate [Example 105]”, the entry is “more than 1 mg/mL”. The entry for “Sodium oleoyl-L-Alanyl-L-Valyl-Daunorubicin succinate [Example 118]” is “more than 1 mg/mL”; for “Bissodium linoleic acyl-L-Alanyl-L-Valyl-Doxorubicin bissuccinate [Example 108]” it is “more than 1 mg/mL”. Regarding “Bissodium linolenic acyl-L-Alanyl-L-Valyl-Doxorubicin bissuccinate [Example 109]”, the solubility in water entry is listed as “more than 1 mg/mL”. As for “Bispotassium linoleic acyl-L-Alanyl-L-Valyl-Doxorubicin bissuccinate [Example 122]”, the entry is “more than 1 mg/mL”; as for “Bissodium DHA acyl-L-Alanyl-L-Valyl-Epirubicin bissuccinate [Example 117]”, “more than 1 mg/mL”; as for “Bissodium 4-(2-(2-oleoylaminoethoxy)ethylamino)-4-oxo-butanoyl-L-Alanyl-L-Valyl-Doxorubicin bissuccinate [Example 112]”, “more than 1 mg/mL”.
